Assay results from BindingDB's records for doi:10.1021/cb600276q (Genentech, 2006).

Amino acid sequences for entries named in this document (tags omitted). Chains listed by the source or under a name are the forms on record and can include a tag or linker.
UniProt Q96CA5, as listed by the source S150G: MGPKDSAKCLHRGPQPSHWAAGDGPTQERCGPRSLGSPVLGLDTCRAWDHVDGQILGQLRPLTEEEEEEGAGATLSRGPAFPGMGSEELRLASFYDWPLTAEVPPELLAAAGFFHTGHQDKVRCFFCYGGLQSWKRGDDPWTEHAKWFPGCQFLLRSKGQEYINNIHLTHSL

Molecular target: Complex of Baculoviral IAP repeat-containing protein 7 [1-159,S150G] and E3 ubiquitin-protein ligase XIAP [336-348] (Homo sapiens, UniProt Q96CA5, S150G)
Assay: ASSAY_NAME: Fluorescence Polarization Affinity Measurements. DESCRIPTION: Samples for fluorescence polarization affinity measurements were prepared by addition of serial dilutions of target protein to each well containing antagonist and polarization probe in the buffer. Samples were read after 30-min incubation. Fluorescence polarization values were plotted as a function of the antagonist …

SMILES	Ki [µM]
CCC(C)[C@H](NC(=O)CN1CCCC[C@H](NC(=O)[C@H](C)N)C1=O)C(=O)N[C@@H](C)C(=O)N[C@@H](CCC(N)=O)C(=O)N[C@@H](CCCCN)C(=O)N[C@@H](CO)C(=O)N[C@@H](CCC(=O)O)C(=O)O (stereo partly drawn) [(2S)-2-[(2S)-2-[(2S)-6-amino-2-[(2S)-2-[(2S)-2-[(2S,3S)-2-{1-[(3S)-3-[(2S)-2-aminopropanamido]-2-oxoazepan-1-yl]acetamido}-3-methylpentanamido]propanamido]pentanediamido]hexanamido]-3-hydroxypropanamido]pentanedioic acid]	15.3
CC[C@H](C)[C@H](NC(=O)[C@@H]1CCCN1C(=O)[C@@H](NC(=O)[C@H](C)N)C(C)C)C(=O)N[C@@H](C)C(=O)N[C@@H](CCC(N)=O)C(=O)N[C@@H](CCCCN)C(=O)N[C@@H](CO)C(=O)N[C@@H](CCC(=O)O)C(=O)O [(2S)-2-[(2S)-2-[(2S)-6-amino-2-[(2S)-2-[(2S)-2-[(2S,3S)-2-{[(2S)-1-[(2S)-2-[(2S)-2-aminopropanamido]-3-methylbutanoyl]pyrrolidin-2-yl]formamido}-3-methylpentanamido]propanamido]pentanediamido]hexanamido]-3-hydroxypropanamido]pentanedioic acid]	0.5
